## Measured affinities in a library of Ab-14 heavy chain variants

Target peptide (SARS-CoV-2 spike, HR2 region): PDVDLGDISGINAS

Parent scFv Ab-14: VH joined to VL by the linker GGGGSGGGGSGGGGS. Changes lie in the heavy chain CDRs alone.
VH: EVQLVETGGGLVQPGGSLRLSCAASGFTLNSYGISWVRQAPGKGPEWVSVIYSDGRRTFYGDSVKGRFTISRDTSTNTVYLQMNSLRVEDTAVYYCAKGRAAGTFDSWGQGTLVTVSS
VL: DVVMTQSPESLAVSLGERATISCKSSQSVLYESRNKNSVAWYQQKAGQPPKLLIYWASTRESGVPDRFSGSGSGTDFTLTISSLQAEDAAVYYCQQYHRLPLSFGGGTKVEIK

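AAYL49 was designed without a model: most single CDR substitutions and a random sample of double and triple ones. In AlphaSeq, yeast of one mating type display the scFv and yeast of the other type display the target. Mating (16 h, 30 °C) was followed by selection of diploids and sequencing of their barcodes. Read counts were normalised to the haploid input and turned into Kd by a linear fit to BCL2-family pairs of known affinity, for each replicate. There are three technical replicates.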

Variants are written as CDR1, CDR2 and CDR3 of the heavy chain (limits as in the source). Parent: GFTLNSYGIS, VIYSDGRRTFYGDSVK, GRAAGTFDS.
Every variant below is changed at S35 of the VH (sequential numbering).
Kd is apparent (estimated from mating counts) and averaged on the log scale over replicates with a signal. Smaller is tighter.
Where no diploid with the target was found in any replicate, the entry reads "nd": below detection, most likely a poor binder, though not proof of it.
Nonspecific signal, from three strains lacking the peptide, appeared in 15% of pairings of library AAYL49, centred on 11 µM (5% of these signals below 680 nM); values are not corrected for it.

CDR-H1,CDR-H2,CDR-H3,apparent Kd,detected
GFTLNSYGIV,VIYSDGRATFYGDSVK,GRAAGTFDS,320 nM,1 of 3
GFTLNSYGIV,VIYSDGRRTFYGDSVK,GYAAGTFDS,nd,0 of 3
GFGLNSYGIK,VIYVDGRRTFYGDSVK,GRAAGTFDS,nd,0 of 3
GFTLNVYGIH,VIYSDGRRTFYGDSVK,GRAAGTFDI,26 µM,2 of 3
GFTLNSYGIV,VIYSDGRRTHYGDSVK,GRAAGTHDS,9.6 µM,2 of 3
GFTLNSYHIH,VIYSDYRRTFYGDSVK,GRAAGTFDS,nd,0 of 3
GFTLNSYGIQ,VITSDGRRTFYGDSVK,GRAAGTFDS,670 µM,1 of 3
GFTLNSYGIQ,VDYSDGRRTFYGDSVK,GRAAVTFDS,nd,0 of 3
GFTLNSYGIH,VIYSDGCRTFVGDSVK,GRAAGTFDS,250 µM,2 of 3
GFTLNSYGIH,VIYSDGRRTFEGDSVK,GRAAGTFDS,580 nM,3 of 3
GFTLNSYGIW,VIYSLGRRTFYGMSVK,GRAAGTFDS,11 µM,2 of 3
GFTLNSYGIR,MEYSDGRRTFYGDSVK,GRAAGTFDS,nd,0 of 3
GFTLNSYGIF,VIYSDGRRNFYGVSVK,GRAAGTFDS,nd,0 of 3
GFTLNSYGIK,VIYSDGRRTFYGDPCK,GRAAGTFDS,71 µM,1 of 3
GFTLNSYGIE,VIYIDGRRTFYGDSVK,GRAAGFFDS,nd,0 of 3
GFTLNSYGIA,VIYSDGRRTFYGDAVK,GRAAGTFDS,nd,0 of 3
GFTLDSYGIC,VIYSDGRRTFYGDSDK,GRAAGTFDS,nd,0 of 3
GFTLNSYGIL,VIWSDGRRTFYGDSVK,GEAAGTFDS,nd,0 of 3
GFTLNSYGIH,NIYSDGRRTFYGDSVK,GYAAGTFDS,nd,0 of 3
GFTLNSYGIR,VIYSDGRRTFYGQSVK,GRAAGTFDW,130 µM,2 of 3
GFTLNSYGII,VIYSDGRRTFYGGSIK,GRAAGTFDS,370 µM,1 of 3
GFTLNFYGIR,VIYSDGRRTFYGDSVK,GRAAGTFRS,470 nM,1 of 3
GFTLNSYGIG,VIYNDGRRRFYGDSVK,GRAAGTFDS,nd,0 of 3
GFTLNSYGIR,VIYSDGRRTFYGDSVK,GRAAGTFDV,nd,0 of 3
GFTLNSYGLC,VIYSDGRRTFYGDSVK,GRADGTFDS,7.3 µM,2 of 3
GLTLNSYGII,VIYSDGRRTFYGDSVK,GRAALTFDS,nd,0 of 3
GFTLNSYGIM,VIYSDGRRTFYGDMVT,GRAAGTFDS,230 µM,3 of 3
GFTLNSYGIQ,VIYSDGRRTGYGDSVK,GRAAGTFDS,nd,0 of 3
GFELNSYGIW,IIYSDGRRTFYGDSVK,GRAAGTFDS,190 µM,2 of 3
GFTLNSYGIE,VIYSDGRRTFRGDSVK,GRAAGTWDS,nd,0 of 3
GFTLNSYGII,VIYSDGRRTLYGDSVK,GRAAGTDDS,nd,0 of 3
GHTLNSYGIT,VIYSDGRRTFYGDSVK,GRAAGTPDS,9.8 µM,2 of 3
GFTLNSYGIF,VVYSDGKRTFYGDSVK,GRAAGTFDS,70 nM,1 of 3
GFTLNSYGIN,NIYSDGRRTFYGDSVQ,GRAAGTFDS,nd,0 of 3
GFTLNAYGIR,VIYSDGRRTFYGDSVK,GRAAGTTDS,nd,0 of 3
GFTLNSYGMR,VIYSDGRRTFYGDSVK,GRAVGTFDS,nd,0 of 3
GFTLNSEGIK,VIYSDGRRTFYGDSVK,GRAAGTFDK,nd,0 of 3
GTTLNSYGIQ,VIYPDGRRTFYGDSVK,GRAAGTFDS,nd,0 of 3
GFTLNSYKIH,VIYSDGRRTFYGDSVK,GRAAGTFDS,nd,0 of 3
GFTLTSYGIA,VIYSDGRRTFYGDSRK,GRAAGTFDS,11 µM,1 of 3
GFELNSYGIA,VYYSDGRRTFYGDSVK,GRAAGTFDS,nd,0 of 3
GFTSNSYGIR,VIYSDGRRTFYGDSHK,GRAAGTFDS,33 µM,2 of 3
GFTLNSYGIF,VIYQDGRRTFYGDSVK,GRAAGTCDS,11 µM,1 of 3
GFTLNSYGIW,VIYSDGRRTFYGDSVK,TRRAGTFDS,1.1 mM,1 of 3
GFTLNSYGII,VIYSDGRRTFFGDSVK,GRFAGTFDS,3.5 mM,1 of 3
GFTLNSYGIC,VIYCDGVRTFYGDSVK,GRAAGTFDS,430 µM,1 of 3

Repeated from above, the 2 best binders with a signal in all replicates:

CDR-H1,CDR-H2,CDR-H3,apparent Kd,detected
GFTLNSYGIH,VIYSDGRRTFEGDSVK,GRAAGTFDS,580 nM,3 of 3
GFTLNSYGIM,VIYSDGRRTFYGDMVT,GRAAGTFDS,230 µM,3 of 3

Parent in this assay: reference entry 4.4 nM, copy in this library 13 µM (one replicate of three).

Values reported by Engelhart et al. 2022, doi:10.1038/s41597-022-01779-4 (FLAb copy).